Measurements as given in patent publication US7074798B2, “Xanthine derivative and DPPIV inhibitor” (Eisai Co., Ltd, priority 2002, dated 2006).

Sequences of proteins named here, by UniProt entry; tags and fusion partners are left off. A change or cut given only in a name is not applied to a line headed by its entry.
UniProt P22411: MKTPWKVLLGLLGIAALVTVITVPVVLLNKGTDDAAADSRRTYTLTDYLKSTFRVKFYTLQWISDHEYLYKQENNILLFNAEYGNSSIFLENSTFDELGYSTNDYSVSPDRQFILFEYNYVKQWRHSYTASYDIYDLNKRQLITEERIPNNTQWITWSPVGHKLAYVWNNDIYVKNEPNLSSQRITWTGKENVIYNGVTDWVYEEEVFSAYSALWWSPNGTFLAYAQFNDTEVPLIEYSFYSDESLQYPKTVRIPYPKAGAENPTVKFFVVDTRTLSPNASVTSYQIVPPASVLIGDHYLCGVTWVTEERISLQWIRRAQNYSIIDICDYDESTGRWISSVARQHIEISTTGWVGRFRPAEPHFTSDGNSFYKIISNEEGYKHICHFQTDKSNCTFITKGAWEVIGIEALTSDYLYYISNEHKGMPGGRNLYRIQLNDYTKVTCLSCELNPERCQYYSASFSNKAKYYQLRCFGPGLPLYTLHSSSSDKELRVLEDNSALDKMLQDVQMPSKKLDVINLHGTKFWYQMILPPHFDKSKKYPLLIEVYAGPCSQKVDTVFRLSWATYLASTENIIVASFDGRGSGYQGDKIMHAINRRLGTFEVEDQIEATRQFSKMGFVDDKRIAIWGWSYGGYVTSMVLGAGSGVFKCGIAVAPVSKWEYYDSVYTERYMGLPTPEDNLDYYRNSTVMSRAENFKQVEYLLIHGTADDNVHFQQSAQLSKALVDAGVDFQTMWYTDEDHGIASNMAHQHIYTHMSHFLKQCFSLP

Biological target: T1, DPP-IV obtained from swine kidney (Sus scrofa, UniProt P22411)
T1 construct: DPP-IV obtained from swine kidney; from tissue; host or cells: swine kidney
Assay: Determination of the inhibition action of DPPIV
Assay type: biochemical
Method: DPP-IV obtained from swine kidney was dissolved in reaction buffer (50 mM Tris-HCl pH 7.4, 0.1% BSA) at a concentration of 10 mU/mL, and 110 μl of the solution was added. Then, medicament (15 μl) was added thereto, and the mixture was incubated at room temperature for 20 minutes. Gly-Pro-p-nitroanilide (25 μl, final concentration: 0.33 mM) dissolved to 2 mM was added to the mixture to start enzymatic reaction. The reaction time was 20 minutes, and 1N phosphoric acid solution (25 μl) was added to the mixture to quench the reaction.

IC50: 226 nM
Compound: N#Cc1ccc(NCCNCC(=O)N2CCC[C@H]2C#N)nc1 [Control compound 2]
